Here are results for one compound from publication PMC12289066, “Identification of glutathione transferase (GST P1) inhibitors via a high-throughput screening assay and implications as alternative treatment options for breast cancers” (PLOS One, 2025).

Amino acid sequences for entries named in this document (tags omitted). Residues count along the entry.
UniProt P09211, 2-210 limits assumed: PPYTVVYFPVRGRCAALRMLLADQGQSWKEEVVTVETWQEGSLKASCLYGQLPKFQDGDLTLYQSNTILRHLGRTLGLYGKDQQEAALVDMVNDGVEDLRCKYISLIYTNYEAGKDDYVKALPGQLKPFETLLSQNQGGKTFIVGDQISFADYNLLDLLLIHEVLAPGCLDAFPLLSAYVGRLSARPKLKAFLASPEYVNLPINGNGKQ

This assay has as its target T1, GST P1-1 (Homo sapiens, UniProt P09211).
T1 construct: purchased Sigma-Aldrich
Description: High-throughput GST P1-1 inhibition assay (384-well screen, CDNB/GSH). The class given is biochemical. Here is the method: Each drug compound was added to the respective well at a volume of 80 nL of 10 mM stock solution in DMSO, yielding a final compound concentration of 10 μM and a final DMSO concentration of 0.1%. Each plate’s first and last two columns were used as negative (no compound added – 80 nL per well of DMSO) and positive (80 nL of EA added with a final concentration of 50 μM) controls, respectively. The Gyger Certus Flex dispenser was set up using a freshly prepared 1 mM of GSH and 20 nM of GST P1-1, pH 7.4, in one syringe and 8 mM CDNB solution in pure ethanol in the other syringe. […] The plates were incubated for 2 h in the dark at 25°C and then the absorbance was of each well recorded on a BioTek Synergy NEO HTS multimode plate reader (Agilent®) at a wavelength of 340 nm.
The z’factor was calculated for each plate according to Zhang et al.. […] For each plate, the concentration of product was normalized by assigning a score of 0 (0%) to the negative control (average of maximal concentration of product measured in the presence of enzyme without any inhibitor) and a score of 1 (100%) was assigned to the positive control (average minimal concentration of product measured in the presence of enzyme with the reference inhibitor, i.e., EA). The experiment was performed in duplicate and the score for each drug compound was calculated as an average ± standard deviation. […]

Structures are written as SMILES.

As to `Cc1ccc(-c2ccc(F)cc2COc2ccc(CCC(=O)O)cc2)cc1` [TUG-891], the Score was 0.783.
